One compound from patent publication US11072584B2, “Carbon monoxide releasing norbornenone compounds” (OTAGO INNOVATION LIMITED, priority 2015, dated 2021) can be followed below.

The nature of this data set: Solubility in water. Format: physicochemical. Conditions: water or physiological buffers; bis-trifluoroacetate Salt.

“Also recorded” adds a separate entry of the source. Counter-ions that a name gives are not always drawn.

For the compound `CC12C(=O)C(C)(C(c3ccccc3)=C1c1ccccc1)C1(Br)C(=O)N(CCNCCN)C(=O)C21` (stereo not shown) [oCOm-23, 2-(2-(2-Aminoethyl)aminoethyl)-3a-bromo-3a,4,7,7a-tetrahydro-4,7-dimethyl-5,6-diphenyl-4,7-methano-1H-isoindole-1,3,8(2H)-trione bis-trifluoroacetate Salt], the “solubility (in words)” value is given as “increased solubility; also recorded: water soluble”.
